Measured values as given in PMC12207533, “Structure-guided design of a methyltransferase-like 3 (METTL3) proteolysis targeting chimera (PROTAC) incorporating an indole–nicotinamide chemotype” (RSC Medicinal Chemistry, 2025).
pKd: −log10 of the molar value.

Protein sequences, listed by entry. Tags and fused reporters are not part of them. Residues count along the entry.
UniProt P40337, whole entry: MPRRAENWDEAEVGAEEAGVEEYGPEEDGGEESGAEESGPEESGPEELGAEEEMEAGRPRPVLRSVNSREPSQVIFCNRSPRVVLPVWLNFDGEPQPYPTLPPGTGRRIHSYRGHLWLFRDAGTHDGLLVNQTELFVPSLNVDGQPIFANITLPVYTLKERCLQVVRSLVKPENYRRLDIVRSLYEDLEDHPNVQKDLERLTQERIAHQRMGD
UniProt Q86U44, 252-580 limits assumed: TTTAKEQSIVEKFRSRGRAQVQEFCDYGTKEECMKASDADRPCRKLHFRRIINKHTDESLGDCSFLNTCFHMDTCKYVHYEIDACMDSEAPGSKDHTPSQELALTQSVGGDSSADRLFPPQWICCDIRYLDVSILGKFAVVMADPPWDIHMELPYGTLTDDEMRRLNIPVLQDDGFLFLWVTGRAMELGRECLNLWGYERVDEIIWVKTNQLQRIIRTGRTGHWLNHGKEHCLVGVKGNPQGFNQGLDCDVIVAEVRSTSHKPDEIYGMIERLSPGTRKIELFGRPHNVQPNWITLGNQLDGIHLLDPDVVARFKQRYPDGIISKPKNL
UniProt Q96SW2, whole entry: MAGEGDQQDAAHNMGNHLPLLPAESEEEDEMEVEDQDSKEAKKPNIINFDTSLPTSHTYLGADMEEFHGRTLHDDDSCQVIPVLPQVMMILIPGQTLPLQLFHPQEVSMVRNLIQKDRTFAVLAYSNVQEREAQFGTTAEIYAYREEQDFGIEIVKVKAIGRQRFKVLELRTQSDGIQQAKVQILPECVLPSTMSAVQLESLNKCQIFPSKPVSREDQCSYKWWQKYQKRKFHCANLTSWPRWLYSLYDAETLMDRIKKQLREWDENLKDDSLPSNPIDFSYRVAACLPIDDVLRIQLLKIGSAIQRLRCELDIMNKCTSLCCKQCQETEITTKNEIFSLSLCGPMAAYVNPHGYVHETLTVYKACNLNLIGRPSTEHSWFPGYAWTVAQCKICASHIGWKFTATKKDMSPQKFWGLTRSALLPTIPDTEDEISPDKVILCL
UniProt Q9HCE5, 108-444 partner limits assumed: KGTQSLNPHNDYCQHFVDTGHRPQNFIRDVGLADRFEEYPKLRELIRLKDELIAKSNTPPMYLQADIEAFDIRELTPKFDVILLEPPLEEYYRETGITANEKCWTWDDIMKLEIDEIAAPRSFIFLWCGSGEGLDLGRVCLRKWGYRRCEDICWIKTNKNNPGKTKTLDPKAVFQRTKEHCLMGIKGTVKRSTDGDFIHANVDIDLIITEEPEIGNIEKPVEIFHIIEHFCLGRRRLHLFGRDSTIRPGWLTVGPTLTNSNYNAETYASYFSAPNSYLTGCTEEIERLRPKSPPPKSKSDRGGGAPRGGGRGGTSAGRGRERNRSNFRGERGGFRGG
UniProt Q15370, whole entry partner: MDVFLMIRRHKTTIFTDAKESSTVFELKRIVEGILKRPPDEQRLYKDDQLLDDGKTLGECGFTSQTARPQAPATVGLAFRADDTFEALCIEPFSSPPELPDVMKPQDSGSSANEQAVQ
UniProt Q15369, whole entry partner: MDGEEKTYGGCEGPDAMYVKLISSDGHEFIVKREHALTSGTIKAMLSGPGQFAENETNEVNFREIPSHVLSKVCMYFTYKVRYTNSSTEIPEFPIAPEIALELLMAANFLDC

Biological target: human VHL (Homo sapiens, UniProt P40337)
Assay: HTRF human VHL binding kit
Settings: read-out: KD E3-ligases (VHL, HTRF), binary
Experimental: (§1) PROTACs binding to VHL or CRBN were measured using a homogeneous time-resolved fluorescence (HTRF) human VHL or CRBN binding kit (Revvity). Samples were prepared according to the manufacturer's protocol, with compounds diluted in the provided diluent while maintaining a constant DMSO concentration with a final concentration of 1.25%. For the ternary KD determinations, METTL3/14 was added at 4 μM, corresponding to approximately a 20- to 40-fold excess of binary KD, while all other component concentrations were kept as specified in the protocol. Measurements were performed in triplicate using a Tecan Spark 10 M plate reader, recording donor and acceptor emissions at λem_donor = 620 nm and λem_acceptor = 665 nm, respectively, following excitation of the HTRF donor at λex = 320 nm. The acceptor-to-donor emission ratio was calculated as ratio = signal 665 nm/signal 620 nm. Using GraphPad Prism 8.0.1, the fluorescence values were normalized, and KD values were calculated as specified above.

pKd	SMILES
6.84	Cc1ncsc1-c1ccc(CNC(=O)[C@@H]2C[C@@H](O)CN2C(=O)[C@@H](NC(=O)CCOCCOCCOCCNC(=O)CC2(CNCc3nc4ccc(CNC(=O)c5cc(=O)n6ccccc6n5)cc4[nH]3)CCCCC2)C(C)(C)C)cc1

Biological target: METTL3/14 (Homo sapiens, UniProt Q86U44)
Assay: Fluorescence polarization (FP) displacement assay with METTL3/14
Settings: read-out: KD METTL3; binary affinity; 300 nM METTL3/14, 20 nM STM-FL tracer

SMILES	pKd
Cc1ncsc1-c1ccc(CNC(=O)[C@@H]2C[C@@H](O)CN2C(=O)[C@@H](NC(=O)CCc2ccc(-c3cc(-c4cn(Cc5cn6cc(CN7CCC(C)(C)CC7)ccc6n5)nn4)c4cn[nH]c4c3)cc2)C(C)(C)C)cc1	6.58
Cc1ncsc1-c1ccc(CNC(=O)[C@@H]2C[C@@H](O)CN2C(=O)[C@@H](NC(=O)CCc2ccc(C#Cc3ccc(COc4cncc(C(=O)NCc5ccc6cc(CN7CCC(C)(C)CC7)[nH]c6c5)c4)cc3)cc2)C(C)(C)C)cc1	6.80
Cc1ncsc1-c1ccc(CNC(=O)[C@@H]2C[C@@H](O)CN2C(=O)[C@H](C(C)C)N2Cc3ccccc3C2=O)c(OCCOCCOCCOCCNCc2nc3ccc(CNC(=O)c4cc(=O)n5ccccc5n4)cc3[nH]2)c1	5.40
COCCOCCOCCOCCNCc1nc2ccc(CNC(=O)c3cc(=O)n4ccccc4n3)cc2[nH]1	4.98
O=C1CCC(N2C(=O)c3ccc(OCCOCCOCCNCc4nc5ccc(CNC(=O)c6cc(=O)n7ccccc7n6)cc5[nH]4)cc3C2=O)C(=O)N1 (centres unmarked)	5.19
Cc1ncsc1-c1ccc(CNC(=O)[C@@H]2C[C@@H](O)CN2C(=O)[C@H](C(C)C)N2Cc3ccccc3C2=O)c(OCCOCCOCCOCCOCCOCCNCc2nc3ccc(CNC(=O)c4cc(=O)n5ccccc5n4)cc3[nH]2)c1	5.29
Cc1ncsc1-c1ccc(CNC(=O)[C@@H]2C[C@@H](O)CN2C(=O)[C@@H](NC(=O)CCOCCOCCOCCNC(=O)CC2(CNCc3nc4ccc(CNC(=O)c5cc(=O)n6ccccc6n5)cc4[nH]3)CCCCC2)C(C)(C)C)cc1	6.51
CC1(C)CCN(Cc2cc3ccc(CNC(=O)c4cc(Br)cc5[nH]ncc45)cc3[nH]2)CC1	7.27
Cc1ncsc1-c1ccc(CNC(=O)[C@@H]2C[C@@H](O)CN2C(=O)[C@@H](NC(=O)CCOCCOCCOCCOCCNCc2nc3ccc(CNC(=O)c4cc(=O)n5ccccc5n4)cc3[nH]2)C(C)(C)C)cc1	4.42
Cc1ncsc1-c1ccc(CNC(=O)[C@@H]2C[C@@H](O)CN2C(=O)[C@@H](NC(=O)CCOCCOCCOCCOCCOCCNCc2nc3ccc(CNC(=O)c4cc(=O)n5ccccc5n4)cc3[nH]2)C(C)(C)C)cc1	4.79
O=C1CCC(N2C(=O)c3cccc(OCCOCCOCCNCc4nc5ccc(CNC(=O)c6cc(=O)n7ccccc7n6)cc5[nH]4)c3C2=O)C(=O)N1 (centres unmarked)	4.98
Cc1ncsc1-c1ccc(CNC(=O)[C@@H]2C[C@@H](O)CN2C(=O)[C@@H](NC(=O)CCOCCOCCNCc2nc3ccc(CNC(=O)c4cc(=O)n5ccccc5n4)cc3[nH]2)C(C)(C)C)cc1	4.90
Cc1ncsc1-c1ccc(CNC(=O)[C@@H]2C[C@@H](O)CN2C(=O)[C@@H](NC(=O)C2CCN(C(=O)c3ccc(-c4cc(-c5cn(Cc6cn7cc(CN8CCC(C)(C)CC8)ccc7n6)nn5)c5cn[nH]c5c4)cc3)CC2)C(C)(C)C)cc1	6.65
O=C1CCC(N2C(=O)c3ccc(OCCOCCOCCOCCOCCOCCNCc4nc5ccc(CNC(=O)c6cc(=O)n7ccccc7n6)cc5[nH]4)cc3C2=O)C(=O)N1 (centres unmarked)	4.50
O=C1CCC(N2C(=O)c3cccc(OCCOCCOCCOCCOCCNCc4nc5ccc(CNC(=O)c6cc(=O)n7ccccc7n6)cc5[nH]4)c3C2=O)C(=O)N1 (centres unmarked)	4.98

Now from value to compound:

pKd	SMILES
5.14	O=C1CCC(N2C(=O)c3ccc(OCCOCCOCCOCCNCc4nc5ccc(CNC(=O)c6cc(=O)n7ccccc7n6)cc5[nH]4)cc3C2=O)C(=O)N1 (centres unmarked)
5.09	O=C1CCC(N2C(=O)c3cccc(OCCOCCNCc4nc5ccc(CNC(=O)c6cc(=O)n7ccccc7n6)cc5[nH]4)c3C2=O)C(=O)N1 (centres unmarked)
4.58	O=C1CCC(N2C(=O)c3cccc(OCCOCCOCCOCCNCc4nc5ccc(CNC(=O)c6cc(=O)n7ccccc7n6)cc5[nH]4)c3C2=O)C(=O)N1 (centres unmarked)
6.36	COCCOCCOCCOCCNC(=O)CC1(CNCc2nc3ccc(CNC(=O)c4cc(=O)n5ccccc5n4)cc3[nH]2)CCCCC1
6.37	Cc1ncsc1-c1ccc(CNC(=O)[C@@H]2C[C@@H](O)CN2C(=O)[C@@H](NC(=O)CCOCCOCCNC(=O)CC2(CNCc3nc4ccc(CNC(=O)c5cc(=O)n6ccccc6n5)cc4[nH]3)CCCCC2)C(C)(C)C)cc1
5.36	Cc1ncsc1-c1ccc(CNC(=O)[C@@H]2C[C@@H](O)CN2C(=O)[C@H](C(C)C)N2Cc3ccccc3C2=O)c(OCCOCCOCCNCc2nc3ccc(CNC(=O)c4cc(=O)n5ccccc5n4)cc3[nH]2)c1
5.61	Cc1ncsc1-c1ccc(CNC(=O)[C@@H]2C[C@@H](O)CN2C(=O)[C@@H](NC(=O)CCCOc2ccc(-c3cc(-c4cn(Cc5cn6cc(CN7CCC(C)(C)CC7)ccc6n5)nn4)c4cn[nH]c4c3)cc2)C(C)(C)C)cc1
4.71	O=C1CCC(N2C(=O)c3ccc(OCCOCCOCCOCCOCCNCc4nc5ccc(CNC(=O)c6cc(=O)n7ccccc7n6)cc5[nH]4)cc3C2=O)C(=O)N1 (centres unmarked)
< 4.00	O=C1CCC(N2C(=O)c3ccc(OCCOCCNCc4nc5ccc(CNC(=O)c6cc(=O)n7ccccc7n6)cc5[nH]4)cc3C2=O)C(=O)N1 (centres unmarked)
5.12	Cc1ncsc1-c1ccc(CNC(=O)[C@@H]2C[C@@H](O)CN2C(=O)[C@H](C(C)C)N2Cc3ccccc3C2=O)c(OCCOCCOCCOCCOCCNCc2nc3ccc(CNC(=O)c4cc(=O)n5ccccc5n4)cc3[nH]2)c1
5.21	O=C1CCC(N2C(=O)c3cccc(OCCOCCOCCOCCOCCOCCNCc4nc5ccc(CNC(=O)c6cc(=O)n7ccccc7n6)cc5[nH]4)c3C2=O)C(=O)N1 (centres unmarked)

Biological target: human CRBN (Homo sapiens, UniProt Q96SW2)
Assay: HTRF human CRBN binding kit
Settings: read-out: KD E3-ligases (CRBN); HTRF Human Cereblon Binding Kit, binary
Experimental: as §1

pKd	SMILES
5.66	O=C1CCC(N2C(=O)c3ccc(OCCOCCOCCNCc4nc5ccc(CNC(=O)c6cc(=O)n7ccccc7n6)cc5[nH]4)cc3C2=O)C(=O)N1 (centres unmarked)
5.53	O=C1CCC(N2C(=O)c3cccc(OCCOCCOCCOCCOCCOCCNCc4nc5ccc(CNC(=O)c6cc(=O)n7ccccc7n6)cc5[nH]4)c3C2=O)C(=O)N1 (centres unmarked)
